From US6800672B2, “Biodegradable compositions comprising poly(cycloaliphatic phosphoester) compounds, articles, and methods for using the same” (Guilford Pharmaceuticals, Inc., priority 1997, dated 2004)

Key:
[1] = In vivo release of IL-2 from P(CHDM-HOP), serum IL-2 after subcutaneous injection; set-up: species or system Balb/c mice; conditions: bolus injection, same dose of IL-2
Method: A sample of P(CHDM-HOP) was sterilized by γ-irradiation at 2.5 MRads and aseptically blended with IL-2 in the same manner as described above in Example 15. Six female Balb/c mice, 6-weeks of age, were injected subcutaneously with 50 mg of the IL-2 polymer paste sample containing 3.5×10^5 IU of IL-2. Two additional mice received the same dose of IL-2 as a bolus injection, and two additional mice received blank P(CHDM-HOP) injection as a control.
At various time points, 50 μL of blood samples were collected from the tail vein. Blood samples from each group were combined and diluted with HBSS supplemented with 1% BSA. The serum was separated and assayed for IL-2 as described above. Sustained release of IL-2 was attained in vivo, with detectable levels of IL-2 present in the serum, for up to three weeks after injection of the P(CHDM-HOP)/IL-2-loaded paste. In contrast, the IL-2 levels were undetectable after 48 hours in the mice injected with the IL-2 bolus. FIG. 13 graphically compares the pharmacokinetics of IL-2 administered either as a bolus or dispersed in a P(CHDM-HOP) matrix. FIG. 14 depicts the histological examination of a subcutaneous injection site from this in vivo experiment.

[2] = test system: melanoma cell line B16/F10 tumors; conditions: treatment injected Day 3 (3d)

## Bolus IL-2: interleukin-2 (Chiron) dissolved in isotonic solution, bolus injection
[1]
  time after which IL-2 levels were undetectable: 48 h
[2]
  Tumor Volume After Tumor Injection, 28 days: 1946 ± 505.6 mm^3
  Tumor Volume After Tumor Injection, 42 days: 3282 ± 1403.3 mm^3
